From publication PMC10165889 (2023)

By UniProt entry, the sequences of proteins in these tests, tags left out. Residues count along the entry.
UniProt P25440, 344-453 limits assumed: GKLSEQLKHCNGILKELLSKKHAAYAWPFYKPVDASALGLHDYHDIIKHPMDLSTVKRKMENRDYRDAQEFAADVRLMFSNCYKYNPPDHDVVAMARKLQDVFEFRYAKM

Target: BRD2(BD2) (Homo sapiens, UniProt P25440)
Experiment: TR-FRET binding assay, BRD2

Compound: Cc1sc2c(c1C)C(c1ccc(Cl)cc1)=N[C@@H](CC(=O)Nc1ccc(O)cc1)c1nnc(C)n1-2 [reference compound]
- IC50: 3.2 nM
